## Apparent affinities of Ab-91 variants for a coronavirus HR2 peptide

Reference: Engelhart et al. 2022, doi:10.1038/s41597-022-01779-4. File: FLAb, binding data.

Antigen: PDVDLGDISGINAS, a 14-residue peptide of the SARS-CoV-2 spike HR2 region.

The variants keep the light chain, the linker and the frameworks of Ab-91 (scFv order VL, the linker GGGGSGGGGSGGGGS, VH).
VL: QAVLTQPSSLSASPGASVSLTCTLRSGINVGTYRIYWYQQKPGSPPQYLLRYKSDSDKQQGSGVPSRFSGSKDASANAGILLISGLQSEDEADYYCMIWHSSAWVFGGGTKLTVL
VH: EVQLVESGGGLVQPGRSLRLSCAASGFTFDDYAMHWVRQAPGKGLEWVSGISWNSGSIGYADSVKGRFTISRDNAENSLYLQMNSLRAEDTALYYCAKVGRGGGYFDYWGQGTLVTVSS

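The starting antibody came from a phage panning campaign against this peptide. The library (AAYL51) carries one to three amino acid substitutions per variant, with no insertions or deletions. The assay is AlphaSeq: two haploid yeast populations carry antibody and antigen on their surface. After mating in shaken culture at 30 °C for 16 h, diploids were selected and their barcode pairs sequenced. A regression on co-assayed BCL2-family reference pairs converts the normalised counts of each replicate to an apparent Kd. There are three technical replicates.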

Positions count from residue 1 of the parent VH; D30Q puts Q in place of D. Values are log10 of the apparent Kd in nM; lower means stronger binding. A mean of the replicates is given; it leaves out those without a signal. "nd" marks a missing value. The strain was present, yet no cells mated with the target were sequenced in that replicate, which points to weak or no binding.

The variant D30Q/N54S/V99E gave 5.20, 3.36, nd (mean 4.28; controls 0 of 9).
The variant M34H/S57L/F106Y gave nd, nd, nd (controls 0 of 9).
The variant G26Q/G56V/G103A gave nd, nd, nd (controls 0 of 9).
The variant I51W/D62I/G100L gave 4.75, nd, 4.67 (mean 4.71; controls 3 of 9).
The variant S57N/V99S gave nd, nd, nd (controls 0 of 9).
The variant S52V/S57Q/D62M gave nd, nd, nd (controls 0 of 9).
The variant H35N/Y105W/F106D gave 4.75, 6.11, nd (mean 5.43; controls 3 of 9).
The variant M34A/W53T/V64D gave 3.86, 4.99, nd (mean 4.42; controls 2 of 9).
The variant D31I/H35W/G102I gave nd, nd, 3.68 (controls 1 of 9).
The variant G50T/N54W/G103A gave nd, 5.37, 5.72 (mean 5.54; controls 4 of 9).
The variant S52E/S55D/D107S gave nd, nd, nd (controls 1 of 9).
The variant A61L/S63W/R101N gave nd, nd, nd (controls 2 of 9).
The variant D30K/Y60C/R101C gave 4.06, nd, nd (controls 0 of 9).
The variant T28R/D30H/W53L gave 1.68, 1.73, 1.52 (mean 1.64; controls 1 of 9).
The variant H35V/S52Y/N54Y gave nd, nd, nd (controls 0 of 9).
The variant G26S/F27I/G59K gave nd, 3.58, 4.33 (mean 3.95; controls 2 of 9).
The variant F29D/I51G/Y108E gave 4.10, nd, nd (controls 0 of 9).
The variant A61H/S63M/G103S gave 2.35, nd, 2.16 (mean 2.25; controls 0 of 9).
The variant G26K/A61N/V99Q gave nd, nd, nd (controls 1 of 9).
The variant D30C/A33L/D62P gave nd, nd, nd (controls 0 of 9).
The variant G26F/W53Q/N54Y gave nd, nd, nd (controls 3 of 9).
The variant Y32M/I51F/G56T gave 4.72, 5.07, nd (mean 4.90; controls 2 of 9).
The variant N54H/A61D/V64A gave nd, nd, nd (controls 1 of 9).
The variant A33D/S52H/Y105S gave 4.46, nd, nd (controls 5 of 9).
The variant F27A/D30K/M34Q gave nd, nd, nd (controls 0 of 9).
The variant M34I/S57C/S63L gave nd, 4.39, nd (controls 0 of 9).
The variant G26C/A33L/Y108P gave 4.75, 4.17, nd (mean 4.46; controls 7 of 9).
The variant D30N/D31W/S55A gave 0.98, 1.24, 0.69 (mean 0.97; controls 2 of 9).
The variant D30N/V64E/F106A gave 4.17, nd, nd (controls 2 of 9).
The variant D31M/S55C/K65G gave 4.74, 4.08, 3.65 (mean 4.16; controls 2 of 9).
The variant D30F/M34S/G104C gave nd, nd, nd (controls 0 of 9).
The variant W53A/G56A/A61M gave 1.53, 1.42, 0.94 (mean 1.30; controls 1 of 9).
The variant D30I/M34V/G56V gave nd, nd, nd (controls 0 of 9).
The variant D31Q/I51L/A61D gave 2.46, 2.67, 2.61 (mean 2.58; controls 6 of 9).

The closing 3 entries, repeated:

| changes | log10 Kd (nM) by replicate | mean, log10 nM | signal with controls |
|---|---|---|---|
| W53A/G56A/A61M | 1.53, 1.42, 0.94 | 1.30 | 1 of 9 |
| D30I/M34V/G56V | nd, nd, nd | nd | 0 of 9 |
| D31Q/I51L/A61D | 2.46, 2.67, 2.61 | 2.58 | 6 of 9 |

Empty control strains, which show no peptide, gave a signal in 21% of pairings with library AAYL51; the median was 4.54 and 95% of these signals were weaker than 3.26. No background was subtracted. For each scFv, signals with the empty controls are counted beside the result.